From US10472612B2, “Cell culture system” (PRESIDENT AND FELLOWS OF HARVARD COLLEGE, priority 2011, dated 2019)

Protein sequences, listed by entry. Tags and fused reporters are not part of them.
UniProt P08183, whole entry: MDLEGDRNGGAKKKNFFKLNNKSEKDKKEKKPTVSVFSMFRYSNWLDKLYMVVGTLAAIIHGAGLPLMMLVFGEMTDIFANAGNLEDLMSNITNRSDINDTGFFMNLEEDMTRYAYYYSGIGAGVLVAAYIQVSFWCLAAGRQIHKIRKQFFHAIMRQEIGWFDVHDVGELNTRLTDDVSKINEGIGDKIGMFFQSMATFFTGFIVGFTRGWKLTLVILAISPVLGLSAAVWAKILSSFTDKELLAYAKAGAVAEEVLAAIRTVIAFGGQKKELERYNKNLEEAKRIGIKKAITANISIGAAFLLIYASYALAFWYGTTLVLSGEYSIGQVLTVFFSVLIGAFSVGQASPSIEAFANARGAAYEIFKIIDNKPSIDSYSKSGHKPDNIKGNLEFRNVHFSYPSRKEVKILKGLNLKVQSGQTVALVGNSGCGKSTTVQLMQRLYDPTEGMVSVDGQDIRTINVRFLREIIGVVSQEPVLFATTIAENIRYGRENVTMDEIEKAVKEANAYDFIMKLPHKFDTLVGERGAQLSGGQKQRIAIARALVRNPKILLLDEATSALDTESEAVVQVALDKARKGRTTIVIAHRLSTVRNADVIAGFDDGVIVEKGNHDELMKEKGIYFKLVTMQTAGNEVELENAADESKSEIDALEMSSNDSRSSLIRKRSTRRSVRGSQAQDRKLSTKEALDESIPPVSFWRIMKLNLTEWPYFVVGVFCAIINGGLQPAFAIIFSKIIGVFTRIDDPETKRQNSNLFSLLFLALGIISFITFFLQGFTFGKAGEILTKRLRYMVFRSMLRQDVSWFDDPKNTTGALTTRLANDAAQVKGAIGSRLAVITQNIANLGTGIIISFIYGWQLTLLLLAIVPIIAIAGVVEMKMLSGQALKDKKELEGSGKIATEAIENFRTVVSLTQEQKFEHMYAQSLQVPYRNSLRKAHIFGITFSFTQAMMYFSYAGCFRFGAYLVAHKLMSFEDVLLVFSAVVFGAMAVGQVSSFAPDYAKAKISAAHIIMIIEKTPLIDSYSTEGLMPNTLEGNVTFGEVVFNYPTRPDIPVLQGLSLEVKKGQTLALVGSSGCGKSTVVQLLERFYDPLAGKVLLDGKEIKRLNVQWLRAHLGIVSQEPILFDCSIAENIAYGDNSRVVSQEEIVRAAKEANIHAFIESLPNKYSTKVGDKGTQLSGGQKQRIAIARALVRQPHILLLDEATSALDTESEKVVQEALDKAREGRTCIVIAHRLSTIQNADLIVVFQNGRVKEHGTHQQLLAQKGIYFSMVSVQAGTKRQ

Experiments:
[1] = system: Caco-2 cell monolayer alone or with HMVE cell monolayer
[2] = system: Caco-2 monolayer; details: 5 days, cyclic mechanical strain (10% strain, 0.15 Hz) + 30 μL/hr flow
[3] = target: permeability glycoprotein (P-gp) in Caco-2 cells (Homo sapiens, UniProt P08183)
[4] = system: Caco-2 monolayer; details: preliminary; 15% elongation, 30 μL/h, Rho123 100 μM

Substance	effect of mechanical strain on paracellular transport [1]	increase in paracellular permeability [2] [fold]	Papp in BL>AP transport versus AP>BL transport (efflux via P-gp) [3]	Papp in the presence of mechanical strain [4]
fluorescein isothiocyanate-labeled dextran [FD20]	increased	> 4		
Rhodamine 123 [Rho123]			higher	enhanced
